We go through one compound from paper PMC8691691 (ACS Chemical Neuroscience, 2021).

Numbering of substitutions follows the chain as printed.

For test [1], the target named is T1, GlyT2 S640C mutant (Rattus norvegicus, UniProt P58295, S640C).
T1 construct: expressed in transfected cells; host or cells: COS7
T1 sequence (P58295 1-799 S640C): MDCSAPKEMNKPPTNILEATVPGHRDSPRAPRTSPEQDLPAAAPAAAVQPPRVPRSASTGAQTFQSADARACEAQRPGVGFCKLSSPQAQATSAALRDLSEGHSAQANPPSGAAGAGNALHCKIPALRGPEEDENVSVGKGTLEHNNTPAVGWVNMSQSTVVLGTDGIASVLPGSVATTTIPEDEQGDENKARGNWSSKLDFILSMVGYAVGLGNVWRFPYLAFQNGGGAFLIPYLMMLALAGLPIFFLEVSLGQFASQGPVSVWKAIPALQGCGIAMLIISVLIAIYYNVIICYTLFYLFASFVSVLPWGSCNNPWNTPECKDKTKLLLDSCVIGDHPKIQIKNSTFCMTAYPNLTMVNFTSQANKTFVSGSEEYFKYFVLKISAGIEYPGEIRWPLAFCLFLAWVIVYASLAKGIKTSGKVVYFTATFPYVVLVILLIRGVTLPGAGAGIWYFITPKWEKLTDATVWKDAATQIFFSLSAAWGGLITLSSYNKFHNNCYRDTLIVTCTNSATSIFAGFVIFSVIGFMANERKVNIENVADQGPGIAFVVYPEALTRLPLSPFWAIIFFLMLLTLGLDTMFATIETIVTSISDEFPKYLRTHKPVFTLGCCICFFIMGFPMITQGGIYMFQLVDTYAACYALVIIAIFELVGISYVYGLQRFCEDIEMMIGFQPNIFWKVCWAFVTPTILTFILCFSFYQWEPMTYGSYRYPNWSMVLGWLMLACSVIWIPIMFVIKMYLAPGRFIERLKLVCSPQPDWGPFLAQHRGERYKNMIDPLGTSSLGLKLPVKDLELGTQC
In words: [3H]glycine transport by GlyT2 mutant in COS7 cells. Format: cell-based.

The target of test [2] is T2, GlyT2 T580C mutant (Rattus norvegicus, UniProt P58295, T580C).
T2 construct: expressed in transfected cells; host or cells: COS7
T2 sequence (P58295 1-799 T580C): T1 sequence (P58295 1-799 S640C) with T580C, C640S
Described as above. In kind it is cell-based.

What is called EC50 is the concentration giving half of the maximal effect. A lower EC50 goes with an effect from little substance.

Consider `NCC(=O)O` [Gly, glycine], for which the EC50 was determined as 111 ± 2 µM in test [1] and 600 ± 81 µM in test [2].
